{
  "source": "patent US20170266284A1",
  "about": "“PERSONALIZED METHODS FOR TREATING DISEASE BY RADIOSENSITIZATION” (Shuttle Pharmaceuticals, LLC, priority 2014, published 2017)",
  "key": {"[1]": {"tested_on": "Anaplastic Astroyctomas (Grade 3 of 4)", "assay": "IUdR as radiosensitizer with RT in patients with high grade primary brain tumors, vs historical RT-alone controls", "assay_type": "in vivo, human", "conditions": "patients with Anaplastic Astroyctomas (Grade 3 of 4), RT alone 24", "source_text": "(§1) Example 1: Efficacy of IUdR as a Radiosensitizing Agent Compared to Historical RT-Alone Controls for Treatment of High Grade Primary Brain Tumors\n(§2) IUdR requires continuous IV infusion—not an ideal potential candidate for clinical use."}, "[2]": {"tested_on": "Glioblastoma Multiforme (Grade 4 of 4)", "assay": "IUdR as radiosensitizer with RT in patients with high grade primary brain tumors, vs historical RT-alone controls", "assay_type": "in vivo, human", "conditions": "patients with Glioblastoma Multiforme (Grade 4 of 4), RT alone 9", "source_text": "as §1, §2"}},
  "data": [
    {"smiles": "O=c1[nH]c(=O)n([C@H]2C[C@H](O)[C@@H](CO)O2)cc1I", "note": "[IUdR, 5-iodo-2′-deoxyuridine]", "values": [
      {"measurement": "Median Survival (Months)", "setting": "[1]", "value": 39, "unit": "Months"},
      {"measurement": "Median Survival (Months)", "setting": "[2]", "value": 15, "unit": "Months"}
    ]}
  ]
}
